The inhibition is the share of the control response that was lost under treatment. A lower inhibition goes with little suppression.

The source of these data is ChEMBL document CHEMBL1221220, “Transport and signaling via the amino acid binding site of the yeast Gap1 amino acid transceptor” (Nat Chem Biol, 2009).

SMILES strings stand for the structures.

The test deals with T1, General amino-acid permease GAP1 (Saccharomyces cerevisiae) (UniProt P19145).
T1 sequence (whole entry): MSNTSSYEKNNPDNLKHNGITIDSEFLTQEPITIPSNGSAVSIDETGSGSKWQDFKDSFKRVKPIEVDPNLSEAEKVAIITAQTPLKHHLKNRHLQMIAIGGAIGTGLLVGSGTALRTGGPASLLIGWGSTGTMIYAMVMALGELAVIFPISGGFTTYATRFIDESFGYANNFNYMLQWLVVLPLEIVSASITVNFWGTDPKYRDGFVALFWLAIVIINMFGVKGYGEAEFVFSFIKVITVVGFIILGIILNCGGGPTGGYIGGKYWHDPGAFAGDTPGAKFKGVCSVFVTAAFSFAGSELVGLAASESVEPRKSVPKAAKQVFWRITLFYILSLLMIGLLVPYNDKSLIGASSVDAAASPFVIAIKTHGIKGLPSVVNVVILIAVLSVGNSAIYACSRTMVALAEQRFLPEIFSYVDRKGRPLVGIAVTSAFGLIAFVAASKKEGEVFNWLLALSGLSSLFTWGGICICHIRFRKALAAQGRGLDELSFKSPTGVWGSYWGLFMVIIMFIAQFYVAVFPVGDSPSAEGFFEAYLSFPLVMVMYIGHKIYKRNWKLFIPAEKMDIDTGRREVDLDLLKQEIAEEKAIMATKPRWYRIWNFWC
The settings on record: sigma1278b, at 5 mM.
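Note: amino acid uptake through Gap1 in nitrogen-starved wild-type yeast cells, measured after 60 s and expressed relative to L-citrulline.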

Take `NCCCC[C@H](NC(=O)[C@H](CCCCN)NC(=O)[C@@H](N)CCCCN)C(=O)O`: the inhibition is below 15%.
